Molecular target: Human immunodeficiency virus type 1 protease (Human immunodeficiency virus 1, UniProt Q72874)
Assay: Binding affinity against HIV-1 protease

- Ki: 1.1 µM
Compound: CC(C)(C)N(CCO)C(=O)c1ccccc1CCC(O)Cc1ccccc1C(=O)N(CCO)C(C)(C)C (stereo unspecified)
